This is a selection; strong and weak results do not stand in their true shares. Some tests of the compounds listed are not included; inactive here does not mean inactive elsewhere. Active and inactive are the calls of the source. The call rests on the fitted dose curve; in most records, active means well fitted inhibition curve with a large enough effect; inconclusive means small, poorly fitted or top-dose-only effect; inactive means flat fitted curve, though single readings scatter.

We go through 5 molecules from PubChem BioAssay AID900 (National Center for Advancing Translational Sciences (NCATS), 2007).

The experiment deals with Caspase-1 (Homo sapiens) (UniProt P29466). Put plainly: qHTS Assay for Allosteric/Competitive Inhibitors of Caspase-1.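 Further: plate controls were vehicle for no effect and no substrate for full effect.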 Conditions: Caspase-1 enzyme, Ac-WEHD-AFC fluorogenic rate; at 11.5 µM (top of the series) unless noted. An excerpt:
NIH Molecular Libraries Screening Centers Network [MLSCN]
NIH Chemical Genomics Center [NCGC]
PI Name: Dr. James Wells,
Dr. Enrique Perez-Paya, Dr.Janice Williams, Dr. Dennis Wolan, a person
The caspases (Cysteine Aspartyl Protease) comprise a related family of 14 dimeric proteases that are critical mediators of apoptosis (programmed cell death) and inflammation. The caspases represent an important class of drug targets for stroke, ischemia, cancer and inflammatory diseases. […] One goal of this project was to identify compounds that act as allosteric inhibitors via stabilizing the procaspase form of the enzyme. Previous work in Well's laboratory has shown that such allosteric inhibitors can be identified and these act by binding at the dimer interface of enzyme (Hardy, Lam et al., 2004).
The biochemical assay was configured using purified caspase 1 at a high enzyme concentration to promote formation of the homodimers and thus facilitate the identification of allosteric inhibitors. The overall goal was to identify reversible inhibitors with better drug-like properties than the currently available set of aspartyl-containing peptidomimetics that covalently bind the active site. Caspase 1 was assayed using the profluorescent substrate Ac-WEHD-AFC. After initiation of the assay with substrate the plates were rapidly read using an automated robotic system (Kalypsys, Inc.) to maintain consistent timing. A kinetic mode of detection was used where the initial rate was collected (estimated final product formation was ~10%). Compounds were screened as a concentration-titration series that ranged from 57 uM to 0.7 nM. Below is the protocol used for caspase 1.
NCGC Assay Protocol Summary:
Caspase 1 was prepared in buffer (50 mM HEPES pH 7.5, 50 mM KCl, 200 mM NaCl, 10 mM DTT, 0.1% CHAPS) at a concentration of 66.6 nM and 3 uL was dispensed to all wells using black solid Kalypsys 1536-well plates. 20 nL of DMSO containing compounds was added using a pin-tool (Kalypsys Inc.) to columns 5-48. Then 20 nL of DMSO solution from a control plate was added to columns 1-4. Controls were: Column 1, 16 point titration with each concentration in duplicate (1:1 dilutions in DMSO; final starting concentration was 57 uM) of the caspase 1 inhibitor Ac-WEHD-CHO (Alexis Biochemicals); Column 2, a 16 point titration with each concentration in duplicate of the free AFC fluorophore prepared in DMSO (Alexis Biochemicals), final starting was 40 uM; Column 3 neutral (DMSO only) control; Column 4: DMSO alone, to serve as a negative control (no substrate was added). Then 1 uL of 20 uM the substrate Ac-WEHD-AFC (Alexis Biochemicals) prepared in the same buffer was dispensed to all wells except columns 2 and 4 and the plates were immediately transferred (< 1 min) to the Viewlux. The plates were then exposed using 405 nm excitation/520 nm emission filters for 4 sec and read at 20 sec intervals for 3 min. […]
Concentration-response curves were fitted to the data calculated from slope of the linear regression of fluorescent intensity versus time (the rate). The concentration-effect curves were then classified based on curve quality (r2), response magnitude and degree of measured activity. […] Inconclusive compounds had appreciable concentration-dependent effects on both the measured rate and the interpolated basal fluorescence intensity at the start of the reaction but where the basal fluorescent intensity was marginal (e.g. < 10-fold). […]
On to `CN(C)c1cccc(C(=O)NCC2(N(C)C)CCCCC2)c1`, for which the activity change, negative = inhibition is inactive: -7.06% [at 57.5 µM].
On to `CN1CCC[C@H](OC(=O)[C@](O)(c2ccccc2)C2CCCC2)C1`, for which the activity change, negative = inhibition is inactive: 0.941%.
As for `O=C(OC1CN2CCC1CC2)C(CO)(c1ccccc1)c1ccccc1` (stereo not given), the activity change, negative = inhibition is inactive: 0.214% [at 57.5 µM].
Then `CN1CC[C@H](OC(=O)[C@](O)(c2ccccc2)C2CCCC2)C1`, with inactive: -1%; and `C=C(C)C#C[C@@](O)(C(=O)OC1CCN(C)CC1)c1ccccc1`, with inactive: -1.51%.
